# Values of other authors in patent US9205086B2, “Cancer therapy using a combination of a Hsp90 inhibitory compounds and a EGFR inhibitor” (Synta Pharmaceuticals Corp., priority 2010, dated 2015).
# Test system: EGFR
# Conditions: subset of patients with mutations in the tyrosine kinase domain of EGFR; Lynch, et al.; cited from earlier work
smiles,measurement,value
COc1cc2ncnc(Nc3ccc(F)c(Cl)c3)c2cc1OCCCN1CCOCC1 [Gefitinib],efficacy in lung cancer patients,highly efficacious
